Literature values as cited in EP1464341B1, “Ubiquinone-containing water-soluble formulation for ophthalmic use” (Visufarma S.p.A, priority 2003, dated 2004).

Details: even for a very long time; cited from earlier work

d-Alpha-tocopheryl polyethylene glycol 1000-succinate [vitamin E TPGS]
stability (hydrolysis when stored): undergoes no hydrolysis when stored
